Source: patent publication US7919481B2, “Inositol pyrophosphates, and methods of use thereof” (NormOxys, Inc., priority 2002, dated 2011)

Experiments:
whole blood = test: In vitro incubation of whole blood of three species, summary statements; assay type: cell-based, human, mouse and pig; details: in vitro incubation with whole blood
Experimental: The effectors kf96 and kf111 (60 mM) were tested for P50 shifts in whole blood of three species: human, mouse and pig. As usual, pH's for the compound-solutions were adjusted to ˜7.0, osmolarities for both solutions were determined (325-373 mOsM) prior to effectors, and whole blood volumes at 1:1 ratios were incubated.

C57BL/6 mice = test: Tolerability of intraperitoneal injection in mice; assay type: in vivo; details: 30, 45 and 60 mM
[1] = 30 and 45 mM

Substance	lysis of RBCs (whole blood)	toxicity by intraperitoneal injection (C57BL/6 mice)	toxicity by direct injection into the vein [1]
IHP Cholesteryoxy Carbonyl Hepta N,N-Dimethyl Cyclohexyl Ammonium Salt [kf96]	no lysis of RBCs was observed		
IHP Cholesteryoxy Carbonyl Hepta N,N-Dimethyl Cyclohexyl Ammonium Salt [kf16]		non toxic	non-toxic
